{"source": "patent US12605517B1", "about": "(Belhaven BioPharma Inc., priority 2024, dated 2026)", "key": {"[1]": {"test": "Study 101, plasma epinephrine pharmacokinetics", "format": "in vivo", "details": "human, 0.3 mg IM, read-out: Cmax (GeoMean)", "protocol": "Each patient was provided each treatment of the trial with 72-hour washout periods between each treatment, beginning with a 3.5 mg intranasal dose, followed by a 0.3 mg intramuscular dose, followed by a 0.5 mg intramuscular dose, and concluding with a 5.5 mg intranasal dose, with a safety follow-up performed 3 to 5 days after the final dose was administered. The primary endpoints of the study were pharmacokinetic measurements and assessments of comparative bioavailability, while the secondary endpoints were safety concerns and pharmacodynamic assessments."}, "[2]": {"test": "Human Phase 1 clinical study, plasma epinephrine pharmacokinetics and bioavailability", "format": "in vivo", "details": "0.5 mg IM, read-out: mean baseline-corrected Cmax", "protocol": "Nor did the subject participate in Treatment D.\nBlood samples were collected prior to dosing at 60, 30, and 0 minutes before dosing, and after dosing at 2, 5, 7, 10, 15, 20, 25, 30, 45, 60, 90, 120, 180, 240, and 360 minutes. […] Blood samples were analyzed in 8 runs with between run accuracy of −3.66% to 4.02% and precision of 1.30% to 9.94%. […] Recovery was >75% and freeze-thaw, short-term and long-term stability (584 days) were all shown to be acceptable; the analyte was stable under all conditions tested.\nBaseline correction was accomplished using the average of the measured concentrations at nominal times of −60, −30, and 0 minutes before dosing.\nThe PK population consists of all human subjects who provided sufficient PK samples for a given treatment to allow for adequate determination of PK parameters of interest."}}}
{"smiles": "CNC[C@H](O)c1ccc(O)c(O)c1", "note": "[Epinephrine IM, epinephrine]", "values": [{"measurement": "Cmax", "setting": "[1]", "value": 0.199, "unit": "ng/mL"}, {"measurement": "Cmax", "setting": "[2]", "value": 0.396, "unit": "ng/mL"}]}
